Target: integrin α5β1 (human (endogenous in placenta)) (UniProt P05556)
Assay: ELISA

Sequences of proteins named here, by UniProt entry; tags and fusion partners are left off.
UniProt P05556, whole entry, looked up: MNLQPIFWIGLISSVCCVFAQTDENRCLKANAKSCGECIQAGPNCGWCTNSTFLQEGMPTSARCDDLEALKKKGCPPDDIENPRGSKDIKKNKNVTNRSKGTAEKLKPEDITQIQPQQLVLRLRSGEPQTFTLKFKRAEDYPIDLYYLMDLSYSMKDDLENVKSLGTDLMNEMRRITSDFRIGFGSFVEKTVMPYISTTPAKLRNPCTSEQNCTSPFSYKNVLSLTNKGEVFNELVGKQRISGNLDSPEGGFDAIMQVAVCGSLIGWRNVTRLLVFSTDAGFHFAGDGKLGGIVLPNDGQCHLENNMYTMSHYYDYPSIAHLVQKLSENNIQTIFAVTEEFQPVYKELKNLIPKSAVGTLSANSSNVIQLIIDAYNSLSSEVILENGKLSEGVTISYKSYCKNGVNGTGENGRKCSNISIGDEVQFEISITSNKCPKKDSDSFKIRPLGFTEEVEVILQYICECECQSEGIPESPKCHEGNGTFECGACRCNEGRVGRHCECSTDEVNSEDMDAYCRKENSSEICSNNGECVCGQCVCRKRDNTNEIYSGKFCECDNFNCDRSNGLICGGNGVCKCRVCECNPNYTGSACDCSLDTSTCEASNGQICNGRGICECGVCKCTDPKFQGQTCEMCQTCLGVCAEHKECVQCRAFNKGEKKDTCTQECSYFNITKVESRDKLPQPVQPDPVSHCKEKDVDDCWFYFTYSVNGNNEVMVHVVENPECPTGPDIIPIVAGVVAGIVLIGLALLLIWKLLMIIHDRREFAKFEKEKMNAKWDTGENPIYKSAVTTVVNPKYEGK

Substance	fold enhancement over Ala5 [fold]	Kd [nM]
FIII9–10 mutant Ala5-L1408P, GST fusion protein (domain or fragment)	3	
FIII9–10 mutant Ala3, GST fusion protein (domain or fragment)		5
FIII9–10 mutant Ala1, GST fusion protein (domain or fragment)		5
FIII9–10 mutant L1408P, GST fusion protein (domain or fragment)		0.7
